# According to ChEMBL document CHEMBL1156686, “Xanthine oxidase-activated prodrugs of thymidine phosphorylase inhibitors” (Eur J Med Chem, 2008):
# B1: Thymidine phosphorylase (Escherichia coli K-12), P07650 (protein)
# chain: MFLAQEIIRKKRDGHALSDEEIRFFINGIRDNTISEGQIAALAMTIFFHDMTMPERVSLTMAMRDSGTVLDWKSLHLNGPIVDKHSTGGVGDVTSLMLGPMVAACGGYIPMISGRGLGHTGGTLDKLESIPGFDIFPDDNRFREIIKDVGVAIIGQTSSLAPADKRFYATRDITATVDSIPLITASILAKKLAEGLDALVMDVKVGSGAFMPTYELSEALAEAIVGVANGAGVRTTALLTDMNQVLASSAGNAVEVREAVQFLTGEYRNPRLFDVTMALCVEMLISGKLAKDDAEARAKLQAVLDNGKAAEVFGRMVAAQKGPTDFVENYAKYLPTAMLTKAVYADTEGFVSEMDTRALGMAVVAMGGGRRQASDTIDYSVGFTDMARLGDQVDGQRPLAVIHAKDENNWQEAAKAVKAAIKLADKAPESTPTVYRRISE
# Substrate: Cc1cn([C@H]2C[C@H](O)[C@@H](CO)O2)c(=O)[nH]c1=O
# Test: Activity of Escherichia coli thymidine phosphorylase
# In short: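 Recombinant E. coli TP (0.00883 U per 0.2 ml) added to start a continuous spectrophotometric assay. Mix: 0.13 mM 5-nitro-2'-deoxyuridine substrate in 0.1 M potassium phosphate, pH 7.4, 25 °C, read at 355 nm in a microplate. Initial velocity compared with the mean of at least two no-inhibitor controls. Where derived, IC50 used at least five concentrations spanning the value.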
protein,measurement,value
B1,kcat,1770 s⁻¹
